Target: ectodomain of BACE (aa 1-454) fused to a myc-his tag, secreted from HEK293/BACEect. cells (Homo sapiens (Human), UniProt P56817)
Experiment: BACE assay (FRET fluorescence quenching, Example 435; assay format A or B)
Settings: footnote b: protocols described in Example 435

**Q.** How did the IC50 turn out when `CC(C)N1C(=O)C2(N=C1N)c1cc(OCC3CC3)ccc1CC21CCc2ccccc2CC1` (stereo not shown) was run?
**A.** 79.3 nM
